System: human platelets
Conditions: 1 μg UC-hMSC mitochondria in 10 μL TTG, TTG-G or TTG-G-G buffer, refrigerated one hour, 37° C.
Procedure: After treatment, the resultant was incubated with shaking at 100 rpm at 37° C. for one hour.

Row | SMILES | platelet aggregation induced by mitochondria in glycine or glycine oligomer buffer
1 | NCC(=O)NCC(=O)NCC(=O)O [glycine trimer] | no platelet aggregation was observed
2 | NCC(=O)NCC(=O)O [glycine dimer] | no platelet aggregation was observed

Source: patent US12403160B2, “Injection composition containing isolated mitochondria, and use thereof” (Paean Biotechnology Inc., priority 2020, dated 2025)
